Results as given in ChEMBL document CHEMBL2074007, “Characterization of the transport of nucleoside analog drugs by the human multidrug resistance proteins MRP4 and MRP5” (Mol Pharmacol, 2003).

Amino acid sequences for entries named in this document (tags omitted). A change or cut given only in a name is not applied to a line headed by its entry.
UniProt O15439: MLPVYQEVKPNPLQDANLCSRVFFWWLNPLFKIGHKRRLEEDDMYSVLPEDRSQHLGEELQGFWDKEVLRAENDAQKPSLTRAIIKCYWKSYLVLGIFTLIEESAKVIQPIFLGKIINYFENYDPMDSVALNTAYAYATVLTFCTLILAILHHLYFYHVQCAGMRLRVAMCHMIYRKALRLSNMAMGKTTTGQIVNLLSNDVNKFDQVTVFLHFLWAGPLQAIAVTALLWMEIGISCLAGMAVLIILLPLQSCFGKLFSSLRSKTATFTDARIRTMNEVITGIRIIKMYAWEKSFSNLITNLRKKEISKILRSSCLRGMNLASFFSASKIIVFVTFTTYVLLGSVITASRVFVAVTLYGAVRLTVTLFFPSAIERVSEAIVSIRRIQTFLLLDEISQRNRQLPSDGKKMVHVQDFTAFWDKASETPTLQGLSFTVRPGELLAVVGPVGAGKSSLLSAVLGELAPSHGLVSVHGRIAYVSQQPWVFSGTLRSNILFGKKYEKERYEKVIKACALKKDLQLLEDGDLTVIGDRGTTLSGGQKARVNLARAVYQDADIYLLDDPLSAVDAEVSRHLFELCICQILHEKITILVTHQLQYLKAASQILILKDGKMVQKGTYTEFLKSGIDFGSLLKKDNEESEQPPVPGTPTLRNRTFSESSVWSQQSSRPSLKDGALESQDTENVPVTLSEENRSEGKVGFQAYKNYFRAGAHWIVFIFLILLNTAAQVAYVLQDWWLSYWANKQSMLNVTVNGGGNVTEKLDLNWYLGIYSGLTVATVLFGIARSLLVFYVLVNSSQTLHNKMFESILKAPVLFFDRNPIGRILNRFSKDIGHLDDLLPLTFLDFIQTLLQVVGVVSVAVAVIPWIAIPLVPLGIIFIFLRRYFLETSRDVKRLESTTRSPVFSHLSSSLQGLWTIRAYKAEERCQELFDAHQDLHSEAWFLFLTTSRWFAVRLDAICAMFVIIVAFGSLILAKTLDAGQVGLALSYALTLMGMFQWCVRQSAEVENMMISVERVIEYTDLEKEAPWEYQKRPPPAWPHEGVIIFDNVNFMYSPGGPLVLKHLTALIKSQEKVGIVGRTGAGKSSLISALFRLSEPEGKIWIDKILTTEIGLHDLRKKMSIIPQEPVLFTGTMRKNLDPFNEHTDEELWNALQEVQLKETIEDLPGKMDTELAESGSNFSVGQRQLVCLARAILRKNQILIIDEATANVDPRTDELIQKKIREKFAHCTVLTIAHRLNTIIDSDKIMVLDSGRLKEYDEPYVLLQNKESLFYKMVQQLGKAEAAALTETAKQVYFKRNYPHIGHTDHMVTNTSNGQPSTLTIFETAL

Molecular target: ATP-binding cassette sub-family C member 4 (Homo sapiens, UniProt O15439)
Format: functional, cell-based, HEK293

IC50: 10 µM
SMILES: CN(C)C(=O)CCSC(SCCC(=O)O)c1cccc(/C=C/c2ccc3ccc(Cl)cc3n2)c1 (stereo unspecified) [MK-571]
